Source: patent US11236380B2, “Methods for predicting kinase inhibitor resistance” (Research Development Foundation, priority 2017, dated 2022)

Legend:
[1] = tested on: ABL kinase error-prone mutant library; assay: ABL error-prone library screening by FACS in presence of inhibitor; format: cell-based, human; conditions: inhibitor-treated cultures (25 μM)
[2] = tested on: BCR-ABL Q252H Ba/F3 cells; assay: cells; conditions: Mus musculus, BaF3
[3] = tested on: BCR-ABL V299L Ba/F3 cells; assay: cells; conditions: Mus musculus, BaF3
[4] = tested on: BCR-ABL T315I Ba/F3 cells; assay: cells; conditions: Mus musculus, BaF3
[5] = tested on: BCR-ABL M244V Ba/F3 cells; assay: cells; conditions: Mus musculus, BaF3
[6] = tested on: BCR-ABL F359V Ba/F3 cells; assay: cells; conditions: Mus musculus, BaF3
[7] = tested on: BCR-ABL G303R Ba/F3 cells; assay: cells; conditions: Mus musculus, BaF3
[8] = tested on: BCR-ABL M351T Ba/F3 cells; assay: cells; conditions: Mus musculus, BaF3
[9] = tested on: BCR-ABL H396R Ba/F3 cells; assay: cells; conditions: Mus musculus, BaF3
[10] = tested on: BCR-ABL L384M Ba/F3 cells; assay: Ba/F3 BCR-ABL cell viability (CellTiter Glo), IC50; conditions: Mus musculus, BaF3

SMILES: Cc1nc(Nc2ncc(C(=O)Nc3c(C)cccc3Cl)s2)cc(N2CCN(CCO)CC2)n1 [Dasatinib]
- fraction of PE-positive cells ([1]; post-sort 6 sample): 87.7%
- fraction of PE-positive cells ([1]; unsorted pool): 1.8%
- IC50 [2]: 3.4 to 5.6 nM
- IC50 [3]: 15.8 to 44.1 nM
- IC50 [4]: ≥ 137 nM
- IC50 [5]: 1.3 to 3.6 nM
- IC50 [6]: 2.2 to 2.7 nM
- IC50 [7]: 41.9 nM
- IC50 [8]: 1.1 to 1.6 nM
- IC50 [9]: 1.3 to 3 nM
- IC50 [10]: 4 nM
